Laboratory results: patent US12528818B2, “Compositions and methods for inhibition of RAS” (Leidos Biomedical Research, Inc., priority 2021, dated 2026)
pIC50: −log10 of the molar value.

Tests used:
[1] = molecular target: GppNHp-loaded KRAS4b (amino acids 1-169) G12C/C118S protein (Homo sapiens, UniProt P01116, C118S/G12C); test: Covalent cysteine 12 modification by MALDI-TOF MS, GppNHp-loaded KRAS G12C; assay type: biochemical; conditions: 15 minutes reaction time, compound 95 or later using 1 μM proteins
[2] = molecular target: T1, GTP-loaded KRAS4b (amino acids 1-169) G12C/C118S protein (Homo sapiens, UniProt P01116, C118S/G12C); test: Covalent cysteine 12 modification by MALDI-TOF MS, GTP-loaded KRAS G12C; assay type: biochemical; conditions: 15 minutes reaction time, compound 95 or later using 1 μM proteins
T1 construct: KRAS4b (amino acids 1-169) G12C/C118S protein; made in house

[3] = molecular target: GDP-loaded KRAS4b (amino acids 1-169) G12C/C118S protein (Homo sapiens, UniProt P01116, C118S/G12C); test: Covalent cysteine 12 modification by MALDI-TOF MS, GDP-loaded KRAS G12C; assay type: biochemical; conditions: 15 minutes reaction time, compound 95 or later using 1 μM proteins
[4] = molecular target: Avi-KRAS G12C (1-169) GppNHp/RAF1 RBD-3xFLAG (52-151) (Homo sapiens, UniProt P01116, G12C); test: biochemical; conditions: Raf1-GppNHp-KRAS G12C disruption, Raf1 RBD-KRAS G12C-GppNHp disruption assay IC50

Row | SMILES | GppNHp-KRAS G12C percent of modification [1] | GTP-KRAS G12C percent of modification [2] | GDP-KRAS G12C percent of modification [3] | pIC50 [4]
1 | C=CC(=O)N1CCC(N(C)c2nc(OC[C@@]34CCCN3C[C@H](F)C4)nc3c(F)c(-c4ccc(F)c5sc(N)c(C#N)c45)ccc23)[C@H]1COC (stereo partly drawn) [Compound 402] | A (percent of modification ≥70%) | A (percent of modification ≥70%) | A (percent of modification ≥70%) | > 6.30
2 | C=CC(=O)N1CC[C@@H](N(CC)c2nc(OC[C@@]34CCCN3C[C@H](F)C4)nc3c(F)c(-c4ccc(F)c5sc(N)c(C#N)c45)c(C(F)(F)F)cc23)[C@H]1C [Compound 403] | C (10%≤percent of modification <50%) | D (percent of modification <10%) | C (10%≤percent of modification <50%) | > 6.30
3 | C=CC(=O)N1CCC(N(C)c2nc(OC[C@@]34CCCN3C[C@H](F)C4)nc3c(C#N)c(-c4ccc(F)c5sc(N)c(C#N)c45)ccc23)[C@H]1C (stereo partly drawn) [Compound 404] | A (percent of modification ≥70%) | A (percent of modification ≥70%) | A (percent of modification ≥70%) | > 6.30
4 | C=CC(=O)N1CCC(N(CC)c2nc(OC[C@@H]3CC4(CC4)CN3C)nc3c(F)c(-c4ccc(F)c5sc(N)c(C#N)c45)c(C(F)(F)F)cc23)[C@H]1C (stereo partly drawn) [Compound 405] | B (50≤percent of modification <70%) | C (10%≤percent of modification <50%) | A (percent of modification ≥70%) | > 6.30
5 | C=CC(=O)N1C[C@H](C)N(c2nc(OC[C@@H]3C[C@@H](F)CN3C)nc3c(F)c(-c4ccc(F)c5sc(N)c(C#N)c45)c(C(F)(F)F)cc23)C[C@H]1C [Compound 406] | C (10%≤percent of modification <50%) | C (10%≤percent of modification <50%) | C (10%≤percent of modification <50%) | > 6.30
6 | C=CC(=O)N1CCC(N(C)c2nc(OC[C@@H]3C[C@@H](OC)CN3C)nc3c(F)c(-c4ccc(F)c5sc(N)c(C#N)c45)c(C(F)(F)F)cc23)[C@H]1C (stereo partly drawn) [Compound 407] | C (10%≤percent of modification <50%) | C (10%≤percent of modification <50%) | C (10%≤percent of modification <50%) | > 6.30
7 | C=CC(=O)N1C[C@H](C)N(c2nc(OC[C@@H]3C[C@@H](OC)CN3C)nc3c(F)c(-c4ccc(F)c5sc(N)c(C#N)c45)c(C(F)(F)F)cc23)C[C@H]1C [Compound 408] | C (10%≤percent of modification <50%) | C (10%≤percent of modification <50%) | B (50≤percent of modification <70%) | > 6.30
8 | C=CC(=O)N1C[C@H](C)N(c2nc(OC[C@@H]3CC4(CC4)CN3C)nc3c(F)c(-c4ccc(F)c5sc(N)c(C#N)c45)c(C(F)(F)F)cc23)C[C@H]1C [Compound 410, 4-(4-((2S,5R)-4-acryloyl-2,5-dimethylpiperazin-1-yl)-8-fluoro-2-(((S)-5-methyl-5-azaspiro[2.4]heptan-6-yl)methoxy)-6-(trifluoromethyl)quinazolin-7-yl)-2-amino-7-fluorobenzo[b]thiophene-3-carbonitrile] | A (percent of modification ≥70%) | B (50≤percent of modification <70%) | A (percent of modification ≥70%) | > 6.30
9 | C=CC(=O)N1CCC(N(CC)c2nc(OC[C@@]34CCCN3C[C@H](F)C4)nc3c(C#N)c(-c4ccc(F)c5sc(N)c(C#N)c45)c(Cl)cc23)[C@H]1C (stereo partly drawn) [Compound 411] | C (10%≤percent of modification <50%) | C (10%≤percent of modification <50%) | B (50≤percent of modification <70%) | > 6.30
10 | C=CC(=O)N1CCC(N(CC)c2nc(OC[C@@]34CCCN3C[C@H](F)C4)nc3c(F)c(-c4ccc(F)c5sc(N)c(C#N)c45)ccc23)[C@H]1COC (stereo partly drawn) [Compound 412] | A (percent of modification ≥70%) | A (percent of modification ≥70%) | A (percent of modification ≥70%) | > 6.30
11 | C=CC(=O)N1CCC(N(C)c2nc(OC[C@@]34CCCN3C[C@H](F)C4)nc3c(F)c(-c4ccc(F)c5sc(N)nc45)ccc23)[C@H]1C (stereo partly drawn) [Compound 413] | A (percent of modification ≥70%) | A (percent of modification ≥70%) | A (percent of modification ≥70%) | > 6.30
12 | C=CC(=O)N1CC[C@@H](N(CC)c2nc(OC[C@@]34CCCN3C[C@H](F)C4)nc3cc(-c4ccc(F)c5sc(N)c(C#N)c45)c(F)cc23)[C@H]1C [Compound 414] | A (percent of modification ≥70%) | A (percent of modification ≥70%) | A (percent of modification ≥70%) | > 6.30
13 | C=CC(=O)N1CCC(N(CC)c2nc(OC[C@@]34CCCN3C[C@H](F)C4)nc3c(C#N)c(-c4ccc(F)c5sc(N)c(C#N)c45)ccc23)[C@H]1C (stereo partly drawn) [Compound 415, 4-((1-acryloyl-2-methylpyrrolidin-3-yl)(ethyl)amino)-7-(2-amino-3-cyano-7-fluorobenzo[b]thiophen-4-yl)-2-(((2R,7aS)-2-fluorotetrahydro-1H-pyrrolizin-7a(5H)-yl)methoxy)quinazoline-8-carbonitrile] | A (percent of modification ≥70%) | A (percent of modification ≥70%) | A (percent of modification ≥70%) | > 6.30
14 | C=CC(=O)N1CC[C@@H](N(CC)c2nc(OC[C@@]34CCCN3C[C@H](F)C4)nc3c(F)c(-c4ccc(F)c5sc(N)c(C#N)c45)c(Cl)cc23)[C@H]1C [Compound 418] | B (50≤percent of modification <70%) | C (10%≤percent of modification <50%) | B (50≤percent of modification <70%) | > 6.30
15 | C=CC(=O)N1C[C@H](C)N(c2nc(OC[C@@]34CCCN3C[C@H](F)C4)nc3c(Cl)c(-c4ccc(F)c5sc(N)c(C#N)c45)c(C#N)cc23)C[C@H]1C [Compound 422] | B (50≤percent of modification <70%) | C (10%≤percent of modification <50%) | A (percent of modification ≥70%) | > 6.30
16 | C=CC(=O)N1CCC(N(C)c2nc(OC[C@@H]3C[C@@H](F)CN3C)nc3c(F)c(-c4ccc(F)c5sc(N)c(C#N)c45)ccc23)[C@H]1COC (stereo partly drawn) [Compound 423] | A (percent of modification ≥70%) | A (percent of modification ≥70%) | A (percent of modification ≥70%) | > 6.30
17 | C=CC(=O)N1CCC(N(C)c2nc(OC[C@@H]3C[C@@H](OC)CN3C)nc3c(F)c(-c4ccc(F)c5sc(N)c(C#N)c45)ccc23)[C@H]1COC (stereo partly drawn) [Compound 424] | A (percent of modification ≥70%) | A (percent of modification ≥70%) | A (percent of modification ≥70%) | > 6.30
18 | C=CC(=O)N1CCC(N(C)c2nc(OC[C@@]34CCCN3C[C@H](F)C4)nc3c(Cl)c(-c4ccc(F)c5sc(N)c(C#N)c45)c(C#N)cc23)[C@H]1C (stereo partly drawn) [Compound 425] | D (percent of modification <10%) | D (percent of modification <10%) | C (10%≤percent of modification <50%) | 5.30 to 6.30
19 | C=CC(=O)N1CCC(N(C)c2nc(OC[C@@H]3CCCN3C)nc3c(F)c(-c4ccc(F)c5sc(N)c(C#N)c45)c(C(F)(F)F)cc23)C1COC (stereo partly drawn) [Compound 426, 4-(4-((1-acryloyl-2-(methoxymethyl)pyrrolidin-3-yl)(methyl)amino)-8-fluoro-2-(((S)-1-methylpyrrolidin-2-yl)methoxy)-6-(trifluoromethyl)quinazolin-7-yl)-2-amino-7-fluorobenzo[b]thiophene-3-carbonitrile] | B (50≤percent of modification <70%) | B (50≤percent of modification <70%) | B (50≤percent of modification <70%) | > 6.30
20 | C=CC(=O)N1CCC(N(CC)c2nc(OC[C@@H]3C[C@@H](OC)CN3C)nc3c(F)c(-c4ccc(F)c5sc(N)c(C#N)c45)c(C(F)(F)F)cc23)[C@H]1COC (stereo partly drawn) [Compound 427] | C (10%≤percent of modification <50%) | C (10%≤percent of modification <50%) | C (10%≤percent of modification <50%) | > 6.30
21 | C=CC(=O)N1CCC(N(CC)c2nc(OC[C@@]34CCCN3C[C@H](F)C4)nc3c(C#N)c(-c4ccc(F)c5sc(N)c(C#N)c45)ccc23)[C@H]1COC (stereo partly drawn) [Compound 428] | B (50≤percent of modification <70%) | C (10%≤percent of modification <50%) | A (percent of modification ≥70%) | > 6.30
